Test results as given in PMC12154214, “Bioactive Peptides from Sodium Caseinate Hydrolysate with High Oral Absorption Regulate Blood Glucose in Type 2 Diabetic Mice via Inhibition of DPP-IV and Stimulation of GLP-1” (Foods, 2025).

The chains behind the UniProt entries cited, without tags or fusion partners. Residues count along the entry.
UniProt P28843, 37-760 limits assumed: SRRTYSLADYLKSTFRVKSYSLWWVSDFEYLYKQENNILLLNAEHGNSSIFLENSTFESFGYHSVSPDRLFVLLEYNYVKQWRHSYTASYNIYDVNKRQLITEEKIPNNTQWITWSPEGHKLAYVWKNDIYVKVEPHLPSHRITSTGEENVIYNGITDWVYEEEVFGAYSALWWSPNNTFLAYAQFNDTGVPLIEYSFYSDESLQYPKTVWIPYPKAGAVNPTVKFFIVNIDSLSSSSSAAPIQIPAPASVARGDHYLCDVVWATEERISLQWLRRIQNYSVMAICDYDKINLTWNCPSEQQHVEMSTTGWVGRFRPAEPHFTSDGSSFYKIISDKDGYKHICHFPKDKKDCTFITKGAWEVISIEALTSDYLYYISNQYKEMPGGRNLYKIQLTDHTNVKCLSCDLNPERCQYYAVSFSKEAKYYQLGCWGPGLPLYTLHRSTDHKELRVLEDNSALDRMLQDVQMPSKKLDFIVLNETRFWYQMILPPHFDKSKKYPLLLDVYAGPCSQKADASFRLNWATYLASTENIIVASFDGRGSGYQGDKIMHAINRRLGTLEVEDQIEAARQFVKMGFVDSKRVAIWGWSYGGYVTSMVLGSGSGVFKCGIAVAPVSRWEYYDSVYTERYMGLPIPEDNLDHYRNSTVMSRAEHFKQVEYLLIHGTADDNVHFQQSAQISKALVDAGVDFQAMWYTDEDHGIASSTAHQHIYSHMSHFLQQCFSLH

Experiments:
[1] = test system: db/db mice; test: Oral glucose tolerance test (OGTT) in db/db mice; type: in vivo; conditions: after 3 weeks of administration, 1CBR 500 mg/kg/day, sitagliptin 20.5 mg/kg/day
Experimental: In this study, db/db mice (BKS.Cg-Dock7m+/+Leprdb/JNarl from National Laboratory Animal Center, Taipei, Taiwan) 5 weeks of age and weighing 22–25 g were analyzed. The mice were given the 5001-Laboratory Rodent Diet (LabDiet®, St. Louis, MO, USA), which comprised 57% carbohydrate, 13% fat, and 30% protein by total kcal. The Institutional Animal Care and Use Committee (IACUC) of China Medical University approved all animal care and experimental protocols. Between the ages of 6 and 8 weeks, the blood glucose concentrations in the mice were monitored weekly. […] The mice were randomly allocated to three groups, each consisting of 13 individuals. The experimental period lasted for 3 weeks. Group C: control mice; Group P: mice administered 1CBR (500 mg/kg/day); Group S: mice administered sitagliptin (20.5 mg/kg/day; positive control). Mice were housed in groups of 3–4 per cage. The sample size was determined based on previous studies and ethical considerations (3Rs principle) to achieve adequate statistical power without excessive animal use. […] This dose was also within the effective range reported for other food-derived bioactive protein hydrolysates in rodent models. An OGTT was conducted on mice fasted overnight from each group at week 0 and week 3. […]

[2] = biological target: T1, plasma DPP-IV (Mus musculus, UniProt P28843); test: Plasma DPP-IV activity in db/db mice; type: in vivo; conditions: after 3-week treatment, 1CBR 500 mg/kg/day, sitagliptin 20.5 mg/kg/day, group C 83%
T1 construct: blood samples were obtained from all mice into EDTA-treated chilled tubes and then centrifuged; from tissue; host or cells: plasma of db/db mice

plasma DPP-IV activity [2]: 26%
Structure (SMILES): N[C@@H](CC(=O)N1CCn2c(nnc2C(F)(F)F)C1)Cc1cc(F)c(F)cc1F [sitagliptin]
mean plasma glucose concentration (OGTT) [1]: below 400 mg/dL
